In US9849116B2 (KNOPP BIOSCIENCES LLC, priority 2008, dated 2017):

What was measured:
[1] = clinical; conditions: human, oral
[2] = clinical; conditions: human, plasma

CCCN[C@@H]1CCc2nc(N)sc2C1 [(R)-pramipexole, (6R)-4,5,6,7-tetrahydro-N6-propyl-2,6-benzothiazole-diamine]
half-life ([1]; in vivo, 150 mg): 6.28 ± 1.48 h | half-life ([1]; plasma): 6 to 7 h | half-life ([2]; oral, 50 mg): 6.96 ± 1.3 h | half-life ([2]; oral, 100 mg): 7.88 ± 1.19 h | half-life ([2]; po, 100 mg): 6.57 ± 0.88 h
